The results in this text go back to patent US20220041603A1, “SRC INHIBITOR COMPOUNDS FOR SKELETAL MUSCLE MODULATION, METHODS AND USES THEREOF” (SOCIETE DES PRODUITS NESTLE S.A., priority 2018, published 2022).

This test concerns human primary muscle cells. Nature of the test: Assay for myogenesis (troponin-T myotube detection). Conditions: human primary myoblasts, donor 8 and donor 4; dose dependent response; compound treatment 96 hours after differentiation induction. The format is cell-based. The protocol: The inventors developed a high content screening to test in vitro compounds on human primary adult muscle cells. Human Skeletal Muscle Myoblasts (HSMM) were purchased from Lonza (https://bioscience.lonza.com). These cells were isolated from the upper arm or leg muscle tissue of normal donors and used after the second passage. Several donors were tested to ensure cell viability and purity before selecting the final donors, which are a person (Donor 8) and a person (Donor 4).
In order to confirm the results from the primary assay described above, a secondary assay for myogenesis in vitro on all the hits obtained in this primary screening assay. This secondary assay focused on the later stage of myogenesis when the muscle cells fuse together and form multinucleated myotubes. […]
Fusion factor, which is the % of nuclei that are inside the multinucleated myotubes compare to total nuclei and give a readout for muscle cell differentiation.
Myotube area, which is measured based on the Troponin T staining and give a readout on the myotube size and muscle fiber growth.
Human primary myoblasts were seeded in 384 well plates at a density of 3′000 cells per well in skeletal muscle growth medium (SKM-M, AMSbio). […] Custom module analysis based on Multi-Wavelength Cell Scoring of the MetaXpress software was used for quantification. […]

`Cc1ccc(-c2nn(C(C)(C)C)c3ncnc(N)c23)cc1` [PP1, 1-(1,1-Dimethylethyl)-3-(4-methylphenyl)-1H-pyrazolo[3,4-d]pyrimidin-4-amine]: the “myofiber growth (area covered by troponinT-positive myotubes)” value is “enhances”.

Regarding `CC(C)(C)n1nc(-c2ccc(Cl)cc2)c2c(N)ncnc21` [PP2, 3-(4-Chlorophenyl)-1-(1,1-dimethylethyl)-1H-pyrazolo[3,4-d]pyrimidin-4-amine], the “myofiber growth (area covered by troponinT-positive myotubes)” value is listed as “enhances”.
